{
  "source": "patent US20250127752A1",
  "about": "“REDUCED REBOUND EFFECTS IN SUBJECTS TREATED FOR OVERWEIGHT OR OBESITY” (Empros Pharma AB, priority 2021, published 2025)",
  "origin": "cited, not measured here",
  "conditions": "oral, conventional dosage form, cited from earlier work",
  "note": "Read-outs that look alike come from different tables or passages of the source.",
  "data": [
    {"smiles": "C[C@H]1O[C@H](O[C@H]2[C@H](O)[C@@H](O)[C@@H](O[C@H]3[C@H](O)[C@@H](O)C(O)O[C@@H]3CO)O[C@@H]2CO)[C@H](O)[C@@H](O)[C@@H]1N[C@H]1C=C(CO)[C@@H](O)[C@H](O)[C@H]1O", "note": "(stereo partly drawn) [acarbose, O-4,6-Dideoxy-4-[[(1S,4R,5S,6S)-4,5,6-trihydroxy-3-(hydroxymethyl)cyclohex-2-enyl]amino]-α-D-glucopyranosyl-(1→4)-O-α-D-gluco-pyranosyl-(1→4)-D-glucopyranose]", "values": [
      {"measurement": "Fraction of the dose absorbed", "result": "less than 5%"},
      {"measurement": "Fraction of the dose absorbed", "setting": "listed as Acarbose", "result": "< 5", "unit": "%"}
    ]}
  ]
}
